Values quoted from earlier work, collected in US20230256051A1, “MODIFIED KISSPEPTIN RECEPTOR AGONISTS FOR FATTY LIVER DISEASE” (priority 2020, published 2023).

Protein sequences, listed by entry. Tags and fused reporters are not part of them.
UniProt Q969F8, whole entry, species assumed: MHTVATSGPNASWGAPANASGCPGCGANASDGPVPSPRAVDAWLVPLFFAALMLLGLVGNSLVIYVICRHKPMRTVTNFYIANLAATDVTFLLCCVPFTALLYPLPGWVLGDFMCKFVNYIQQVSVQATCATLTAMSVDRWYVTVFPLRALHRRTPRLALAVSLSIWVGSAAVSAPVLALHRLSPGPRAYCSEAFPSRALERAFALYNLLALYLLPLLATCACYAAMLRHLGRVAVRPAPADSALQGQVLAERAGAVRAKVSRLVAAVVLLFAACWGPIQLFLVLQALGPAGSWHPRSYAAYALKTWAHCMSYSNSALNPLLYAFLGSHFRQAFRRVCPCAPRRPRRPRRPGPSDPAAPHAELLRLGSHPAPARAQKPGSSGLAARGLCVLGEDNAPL

Molecular target: KISS1R (Homo sapiens, UniProt Q969F8)
Set-up: expressed in transfected cells; host or cells: CHO (CHO-KISS1R), membrane preparations
Conditions: CHO-KISS1R membrane preparations; means +/- SE; n = 3-5; read-out: IC50 against [125I]KP-54 binding to KISS1R; cited from earlier work

Row | Substance | IC50
1 | YNWNS [dF]GLRF-NH2 [ANA20] | 253 ± 144 nM
2 | YNWNSFGLR[dF]-NH2 [ANA21] | 447 ± 173 nM
3 | [dY]NWNSFGLRF-NH2 [ANA19] | 3.6 ± 0.3 nM
